# According to patent US10758634B2, “Compounds, compositions and associated methods using zirconium-89 in immuno-positron emission tomography” (Wake Forest University, priority 2016, dated 2020):
# Test system: HER2^+ 2170 and HER2^− 827 human lung cancer tumors
# Assay: Small animal PET/CT imaging of HER2+/− tumors in nude mice
# Type: in vivo
# Settings: prepared with ^89ZrCl4; images at 144 h post-injection
substance,measurement,value
^89Zr-DFO-Trastuzumab: trastuzumab (TmAb) conjugated to DFO and radiolabeled with ^89Zr using ^89Zr-OX or ^89ZrCl4,"antibody function in vivo, PET imaging of HER2+/− tumors",does not hinder antibody function in vivo
